Assay [1] has as its target M1 muscarinic acetylcholine receptor (mAChR) (Homo sapiens, UniProt P11229). The assay can be described thus: FLIPR calcium assay (Fluo 8), M1-overexpressing CHO-K1 cells. The protocol:
(§1) Stimulation of a Gq-coupled G-protein coupled receptors (GPCRs), result in an efflux of calcium from the endoplasmic reticulum to the cytoplasm (Berridge, 1993), thus rendering this assay appropriate for the assessment of M1, M3 and M5 receptors. CHO-K1 cells overexpressing the M1, M3, or M5 muscarinic acetylcholine receptor (mAChR) were dispensed at 15,000 cells per well in 30 μl volume to 384-well plates and grown overnight at 37° C. in a 5% CO2 atmosphere. Fluo-8 Solution, 10 μl per well, was added to each well and incubated for 30 minutes at 37° C. in a 5% CO2 atmosphere. Compounds diluted in Hanks' balanced salt solution (HBSS) were transferred to the cell assay plate at 10 μl per well, and then read on a FLIPR instrument. EC50 and Emax figures were calculated from the resulting data for each receptor subtype.

The chains behind the UniProt entries cited, without tags or fusion partners.
UniProt P11229, whole entry: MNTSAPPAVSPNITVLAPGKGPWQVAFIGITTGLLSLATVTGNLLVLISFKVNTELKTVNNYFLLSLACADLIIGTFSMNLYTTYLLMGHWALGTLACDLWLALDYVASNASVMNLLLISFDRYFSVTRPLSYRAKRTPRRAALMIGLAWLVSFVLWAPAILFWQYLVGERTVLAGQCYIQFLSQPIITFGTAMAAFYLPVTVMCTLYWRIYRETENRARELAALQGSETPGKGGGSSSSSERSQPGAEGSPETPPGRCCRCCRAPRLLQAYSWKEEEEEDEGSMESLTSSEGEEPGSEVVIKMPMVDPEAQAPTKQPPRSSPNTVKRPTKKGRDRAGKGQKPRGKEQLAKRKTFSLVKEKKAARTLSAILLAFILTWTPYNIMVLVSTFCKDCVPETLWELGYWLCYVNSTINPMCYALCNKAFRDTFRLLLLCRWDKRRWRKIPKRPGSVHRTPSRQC
UniProt P20309, whole entry: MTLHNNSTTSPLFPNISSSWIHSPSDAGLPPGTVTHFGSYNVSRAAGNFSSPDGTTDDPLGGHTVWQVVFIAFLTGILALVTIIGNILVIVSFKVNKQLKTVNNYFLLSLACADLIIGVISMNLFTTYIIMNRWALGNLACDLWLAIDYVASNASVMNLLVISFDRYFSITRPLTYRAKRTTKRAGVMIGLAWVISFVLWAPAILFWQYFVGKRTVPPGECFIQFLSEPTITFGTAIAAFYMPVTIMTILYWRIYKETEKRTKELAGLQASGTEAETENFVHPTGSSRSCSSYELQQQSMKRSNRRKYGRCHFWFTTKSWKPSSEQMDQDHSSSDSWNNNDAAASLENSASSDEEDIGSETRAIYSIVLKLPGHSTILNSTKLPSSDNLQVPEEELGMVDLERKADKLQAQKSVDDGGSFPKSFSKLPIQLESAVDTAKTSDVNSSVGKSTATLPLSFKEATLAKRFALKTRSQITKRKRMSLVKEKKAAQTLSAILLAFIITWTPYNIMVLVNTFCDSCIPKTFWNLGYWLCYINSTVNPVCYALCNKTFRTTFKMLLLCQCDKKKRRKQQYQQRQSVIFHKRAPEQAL
UniProt P08912, whole entry: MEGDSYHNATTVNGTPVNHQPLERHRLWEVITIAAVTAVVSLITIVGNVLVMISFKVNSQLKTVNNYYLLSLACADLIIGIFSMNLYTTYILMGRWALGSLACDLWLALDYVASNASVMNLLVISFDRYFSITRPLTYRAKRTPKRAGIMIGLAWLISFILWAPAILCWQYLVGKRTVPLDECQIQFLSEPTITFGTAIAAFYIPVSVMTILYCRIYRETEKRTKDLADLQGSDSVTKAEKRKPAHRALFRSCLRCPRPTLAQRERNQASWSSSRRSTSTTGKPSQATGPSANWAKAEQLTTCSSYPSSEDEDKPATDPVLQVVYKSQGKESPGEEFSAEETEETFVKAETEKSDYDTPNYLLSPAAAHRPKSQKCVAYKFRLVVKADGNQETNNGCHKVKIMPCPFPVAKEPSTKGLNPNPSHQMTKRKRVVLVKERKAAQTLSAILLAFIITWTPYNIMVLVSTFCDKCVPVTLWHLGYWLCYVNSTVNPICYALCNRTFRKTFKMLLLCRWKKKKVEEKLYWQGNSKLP
UniProt P08173, whole entry: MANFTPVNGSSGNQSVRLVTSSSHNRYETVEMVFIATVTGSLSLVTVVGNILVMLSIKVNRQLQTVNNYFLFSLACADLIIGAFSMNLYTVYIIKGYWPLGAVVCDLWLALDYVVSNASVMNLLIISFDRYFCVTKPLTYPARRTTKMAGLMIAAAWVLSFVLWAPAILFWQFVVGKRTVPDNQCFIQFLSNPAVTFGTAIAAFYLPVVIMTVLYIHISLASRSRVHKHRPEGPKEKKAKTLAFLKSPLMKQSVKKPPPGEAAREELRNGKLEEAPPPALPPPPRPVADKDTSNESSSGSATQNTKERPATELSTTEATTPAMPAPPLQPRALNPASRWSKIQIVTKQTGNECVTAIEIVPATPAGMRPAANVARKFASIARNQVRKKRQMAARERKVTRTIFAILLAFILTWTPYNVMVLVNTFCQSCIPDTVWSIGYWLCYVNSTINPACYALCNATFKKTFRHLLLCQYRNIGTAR

The target of assay [2] is M3 muscarinic acetylcholine receptor (mAChR) (Homo sapiens, UniProt P20309). The assay can be described thus: FLIPR calcium assay (Fluo 8), M3-overexpressing CHO-K1 cells. The note with it: read-out: M3 EC50. The protocol: as §1
Assay [3] addresses M5 muscarinic acetylcholine receptor (mAChR) (Homo sapiens, UniProt P08912). The assay can be described thus: FLIPR calcium assay (Fluo 8), M5-overexpressing CHO-K1 cells. The protocol:
as §1

Another assay concerns the target M4 mAChR (Homo sapiens, UniProt P08173). The assay can be described thus: cAMP TR-FRET assay with forskolin, M4-overexpressing CHO-K1 cells. The source says: The M2 and M4 mACh receptors are Gi-coupled receptors which, upon activation, produce a decrease in cAMP. Assays were developed that measured the potency and efficacy of compounds at the M2 or M4 mAChR using M2- or M4-overexpressing CHO-K1 cell lines. Time-resolved fluorescence resonance energy transfer (TR-FRET) technology was used, where signal occurs as a result of transfer of energy if the donor molecule is in close proximity to an acceptor molecule when the molecules have bound to the molecule of interest. The cAMP detection is a competition binding assay, where cAMP produced by cells competes for binding with the labeled donor molecule to the anti-cAMP acceptor antibody. Due to the low basal levels of cAMP in the CHO-K1 cell line, forskolin was used to increase cAMP levels to enable assessment of agonist activity at the mAChR of interest.

A word on the EC50: it is the concentration at which the effect is half-maximal.

Take `CCOC(=O)N1CC2(CC[C@@H](N3CCC(c4cc(F)cnc4-c4cc[nH]n4)CC3)C2)C1`: the “M1 Emax (%)” value in assay [1] was “** (“**” means 50 to 79.9%)”. In addition, in assay [2], the EC50 was > 10 µM. Moreover, the “M5 Emax (%)” value in assay [3] was “*** (“***” means 19 to 49.9%)”. Moreover, the “M4 Emax (%)” value on M4 mAChR is “* (“*” means 80 to 100%)”.

Values taken from patent US20260098026A1, “M4 ACTIVATORS/MODULATORS AND USES THEREOF” (Cerevel Therapeutics, LLC, priority 2022, published 2026).
